Literature values, collected in US10265309B2.
This is a selection: effects in other tests are not listed, and their absence says nothing.

Settings: oral administration, first pass effect metabolism

Compound: CCC(=O)N(c1ccccc1)C1CCN(CCc2ccccc2)CC1
- Fraction of orally administered fentanyl not absorbed: ≥ 50%
